{"source": "patent US7097990B2", "about": "“Method of screening cell death inhibitor” (Astellas Pharma Inc., priority 2001, dated 2006)", "tested_on": "human LTRPC2 protein", "assay": "86Rb+ efflux: activation of human LTRPC2 protein by PARP activator in transfected CHO dhfr- cells", "conditions": "MNNG 1 mmol/liter or H2O2 0.06%, room temperature 30 minutes; control without MNNG or H2O2", "data": [{"molecule": "CN(N=O)C(=N)N[N+](=O)[O-]", "values": [{"measurement": "residual activity of 86Rb+ in comparison with the control cells", "value": 35.6, "unit": "%"}]}]}
